Measurements: US12168639B2 (priority 2013, dated 2024)
Only a part of the results on these compounds is given; other tests are left out.

Assays:
[1] = test system: liver TCA cycle flux and pyruvate carboxylase flux; assay: Hepatic flux rates ([3-13C] lactate infusion, NMR and LC/MS/MS); conditions: DNPME treated vs vehicle
Procedure: To measure liver-specific flux through the TCA cycle, a steady-state infusion of [3-^13C] lactate (5 min prime 120 μmol/[kg-min], 115 min continuous infusion 40 μmol/[kg-min]) and [^3H] glucose (44 μmol/min) was performed. At 120 min, plasma and livers were isolated, and hepatic fluxes were measured by nuclear magnetic resonance (NMR) and LC/MS/MS.
To measure total glutamate enrichment from livers of rats infused with [3-^13C] lactate, ˜100 mg frozen liver were homogenized in 400 μL ice-cold 50% acetonitrile. The samples were centrifuged at 10,000 g for 10 min, and the supernatant was isolated. […]
Livers from rats infused with [3-^13C] lactate and [^3H] glucose were extracted with perchloric acid (Alves et al., 2011, Hepatology 53:1175-1181). Basal glucose turnover was measured (Maggs, 1998, Annals of Internal Medicine 128:176-185); as these rats were overnight fasted with low hepatic glycogen concentrations (FIG. 6P), all glucose production was presumed to be from gluconeogenesis. It was assumed that gluconeogenesis was 90% hepatic and 10% renal; from whole-body gluconeogenesis data, the absolute hepatic gluconeogenesis could then be calculated. […]
[formula] from the calculated VTCA, VPDH could be determined using this equation, and the contribution of fatty acid oxidation to the TCA cycle could be determined as the difference between VTCA and VPDH. […]

[2] = test system: Zucker Diabetic Fatty (ZDF) rats; assay: 5 day treatment of Zucker Diabetic Fatty rats on high fat diet and sucrose water
Text: Despite having no difference in body weight or white adipose tissue weight, and consistent with a primarily hepatic uncoupling effect and unchanged whole-body metabolism, DNPME treatment normalized fasting plasma glucose and triglyceride concentrations (FIGS. 3A-3C). […] To further test the hypothesis that DNPME treatment ameliorates hyperglycemia in a rat model of chronic type 2 diabetes, 5 day treatment studies on Zucker Diabetic Fatty (ZDF) rats concurrently fed high fat diet and sucrose water were performed.

[3] = test system: Isolated mitochondria from liver; assay: Mitochondrial respiration (uncoupling) in isolated liver mitochondria; assay type: cell-based, rat; conditions: 0, 3.125, 6.25, and 12.5 μM
[4] = test system: whole-cell brain preparations; assay: Uncoupling in whole-cell brain preparations; assay type: cell-based
rats [5] = conditions: five days of daily treatment
rats [6] = assay: Acute toxicity: rectal temperature and survival after IP injection
[7] = after DNPME 5 mg/kg intraperitoneal injection
[8] = acute, DNP at doses above 10 mg/kg, DNPME up to 200 mg/kg

## COc1ccc([N+](=O)[O-])cc1[N+](=O)[O-]
[1]
  increase in rates of hepatic TCA flux: 50%
  reduction in hepatic pyruvate carboxylase flux: 30%
[2]
  fasting plasma glucose: reductions
  fasting plasma insulin: reductions
  liver or renal dysfunction: no indication
  liver triglyceride concentrations: reductions
[3]
  mitochondrial uncoupling (oxygen consumption): uncoupling of liver
[4]
  uncoupling: neither DNP nor DNPME was found to uncouple
Rats [5]
  daily doses with no appreciable hepatic or renal toxicity: below 50 mg/kg
DNPME 5 mg/kg or DNP
  time of peak plasma concentrations of DNP after injection: 4 h
DNPME treatment
  fold by which DNP concentrations are lower than toxic levels of DNP (380 μM): more than 75 fold
After DNPME 5 mg/kg
  DNP concentrations in all tissues: below 10 μM
  tissue distribution of DNPME: accumulated in WAT but not any other tissue
[7]
  peak liver DNP concentrations: 8 µM
  peak plasma DNP concentrations: 5 µM
Rats [6]; [8]
  mortality acutely after IP injection: no such effects
  rectal temperature after IP injection: no such effects
Rats [6]; single IP injection
  dose up to which no increase in rectal temperature or mortality occurred: up to 200 mg/kg
